{
  "source": "patent US12303474B2",
  "about": "“S-enantiomerically enriched compositions of beta blockers for treating amyotrophic lateral sclerosis” (priority 2013, dated 2025)",
  "key": {"[1]": {"test_system": "G93A SOD1 B6SJL hybrid (G93A) model", "conditions": "30 mg/kg/d", "experimental": "Transgenic mice over-expressing a high copy number (25 copies) of mutated human SOD1 gene with a G93A point mutation, i.e., B6SJL-TgN [SOD1-G93A]1 Gur (G1H-G93A transgenic mice, JR2726; Hemizygote) (Gurney M E, et al., Science, 264, 1772-1775, 1994) (“G93A SOD1 B6SJL hybrid (G93A) model”), were used.\nTo study the effect of the test compounds on skeletal muscle atrophy, the skeletal muscle mass were determined at the end of the study.\nThe number of all mice in the population is indicated as “n” in at the bottom of FIGS. 21A-21C.\nThe number of all mice in the population is indicated as “n” in at the bottom of FIGS. 20D-20F.\nThe number of all mice in the population is indicated as “n” in at the bottom of FIGS. 21G-21I."}, "[2]": {"test_system": "G93A SOD1 B6SJL hybrid (G93A) model", "conditions": "30 mg/kg/day vs. placebo"}},
  "note": "Read-outs that look alike come from different tables or passages of the source.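 Wherever HR survival (FIG. 14) is given: dosing began after ALS onset in G93A SOD1 mice, with survival as the endpoint, defined humanely as the animal failing to regain upright posture within 30 s when placed sideways.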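 Wherever HR survival (FIG. 15) is given: dosing began after ALS onset in G93A SOD1 mice, with survival as the endpoint, defined humanely as the animal failing to regain upright posture within 30 s when placed sideways.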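 Wherever HR survival (FIG. 16) is given: dosing began after ALS onset in G93A SOD1 mice, with survival as the endpoint, defined humanely as the animal failing to regain upright posture within 30 s when placed sideways.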",
  "data": [
    {"smiles": "Nc1nc2ccc(OC(F)(F)F)cc2s1", "note": "[rilutek]", "values": [
      {"measurement": "BAT (brown adipose tissue)", "setting": "[1]; all mice", "result": "53.7 ± 2.9", "unit": "mg"},
      {"measurement": "BAT (brown adipose tissue)", "setting": "[1]; female mice", "result": "53.7 ± 4.5", "unit": "mg"},
      {"measurement": "BAT (brown adipose tissue)", "setting": "[1]; male mice", "result": "54.8 ± 3.9", "unit": "mg"},
      {"measurement": "HR survival (FIG. 14)", "setting": "[2]; all mice", "result": 0.89},
      {"measurement": "HR survival (FIG. 16)", "setting": "[2]; female mice", "result": 1.08},
      {"measurement": "HR survival (FIG. 15)", "setting": "[2]; male mice", "result": 0.63}
    ]}
  ]
}
